Values quoted from earlier work as cited in US12458587B2, “Hypoallergenic composition for skin regeneration or skin soothing, containing culture product or extract of Aureobasidium pullulans strain” (AMOREPACIFIC CORPORATION, priority 2018, dated 2025).

Test system: chorioallantoic membrane (CAM)
Settings: application period of 5 minutes, cited from earlier work

sodium magnesium lauryl-myristyl-6-ethoxy-sulfate [Texapon Asv®]
degree of stimulation (vascular response of CAM) (0.5%): weak hemorrhage and lysis | degree of stimulation (vascular response of CAM) (1.0%): moderate hemorrhage and lysis | degree of stimulation (vascular response of CAM) (5.0%): strong hemorrhage and lysis

Like-named read-outs stand apart in the source and are kept apart here.
